Giardia killer: Giardia lamblia killing; Giardia lamblia trophozoite viability; activity change, % at 7.66 µM, hits read low; hit rate 0.15% among 340,000; AID 540267; in the data active = activity change below about -80%; inconclusive = between about -30% and that limit;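 also: parasites exposed to compound for two days anaerobically before the ATP read; % is scaled to controls: 0 for no effect and ±100 for the full control effect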
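Giardia lamblia trophozoites (100 cells/well) were incubated with compounds for 48 h at 37 deg C under anaerobic conditions. Viability was read as ATP content by one-step luminescence after 15-30 min at room temperature.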
B2AR arrestin: recruits beta-arrestin to the human beta2-adrenergic receptor. beta-arrestin recruitment to beta2AR, cell-based reporter. Potency, µM (highest dose often 46.1 µM), for the others: at the highest dose activation, most hits filed as activators. hit rate 0.02% among 330,000;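 also: potency is read from the fitted curve at half-maximal effect; 0% = DMSO controls and full agonism = EC100 isoproterenol or metaproterenol; nearly all actives have a fitted effect of over 65% in size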
miR-21 FLuc: miR-21 reporter, rising signal; Potency, µM (titrated, usually from 38.3 µM), without a hit: at the highest dose reporter change, positive = more light; AID 2288; 340,000 tested, under 10 active; HeLa miR-21 FLuc reporter, luciferase, 48 h; active = well fitted rising curve with a large enough effect; inconclusive = small, poorly fitted or top-dose-only effect; inactive = no such curve, though single readings can be large or run the other way;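 note: % of control where 0% means no effect; miR-21 action dims this reporter so a rising signal means less miR-21 action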
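Using DMEM plus 10% FBS, HeLa miR-21-FLuc cells are incubated with test compounds (final up to about 40uM) for 48 hours; firefly luciferase signal is then imaged following reagent-mediated lysis.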
uPA surface inh: inhibitors of cell surface uPA generation; cell surface uPA generation assay, qHTS; Potency, µM (highest dose often 38.3 µM), inactives show at the highest dose activity change, negative = inhibition, hits mostly inhibitors; AID 540303; hit rate 0.31% among 330,000; active = well fitted inhibition curve with a large enough effect; inconclusive = small, poorly fitted or top-dose-only effect; inactive = no such curve, though single readings can be large or run the other way; tested in mouse RAW 264.7 cells; also: potency is read from the fitted curve at half-maximal effect; % is scaled to controls: 0 for no effect and ±100 for the full control effect; nearly all actives have a fitted effect of over 55% in size
GALK inhibitor: inhibitors of human galactokinase | Purified GALK, Kinase-Glo residual ATP luminescence | Potency, µM (series often up to 57.5 µM), for the others: top-dose activity change, negative = inhibition, actives largely listed as inhibitors | hit rate 0.007% among 270,000 | AID 1868; also: potency is read from the fitted curve at half-maximal effect; % is scaled to controls: 0 for no effect and ±100 for the full control effect
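Human GALK (5 nM) with 35 uM ATP and 100 uM galactose in 20 mM HEPES pH 8.0, 5 mM MgCl2, 60 mM NaCl, 1 mM DTT, 0.01% BSA. After 1 h at room temperature, leftover ATP was read by Kinase-Glo Plus luminescence.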
FBPA coupling cs: coupling enzyme interference in Giardia aldolase counter-screen; coupling enzyme system counterscreen, AmpLite Red fluorescence; activity change, negative = inhibition, % at 58.2 µM, hits read low; hit rate 0.67% among 290,000; AID 2472; in the data active = activity change below about -30%; also: % is scaled to controls: 0 for no effect and ±100 for the full control effect
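Activity here indicates interference with the coupling reaction, not aldolase inhibition. Compounds at 57.5 uM final met coupling enzymes for 10 min at RT; substrate and AmpLite Red detection followed, with a 525/598 nm fluorescence read after 20 min.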
Starred values were filed as active, the others as inactive. Only some compounds are listed: those with a hit (about 0.92% of all), similar ones and a draw of the others. Unless noted, calls follow the shape of the dose curve; as a rule, active = well fitted curve in the direction sought with a large enough effect; inconclusive = small, poorly fitted or top-dose-only effect, or another doubt; inactive = no such curve, though single readings can be large; an effect the other way counts as inactive or inconclusive.

For Cn1nc(-c2ccc(F)cc2)nc2c(=O)n(C)c(=O)nc1-2 the results were Giardia killer -89*.
Screening Cn1nc(-c2ccccc2)nc1-c1ccccc1 returned Giardia killer 13, B2AR arrestin 0% and uPA surface inh -11%.
`COc1ccc(-c2nc3c(=O)n(C)c(=O)nc-3n(C)n2)cc1` gave Giardia killer -99*.
CCn1nc(-c2ccccc2C)nc2c(=O)n(C)c(=O)nc1-2 was read as Giardia killer -93*.
Screening CCOC(=O)c1c(NC(=O)/C=C/c2ccc(C(C)C)cc2)sc2c1CCC2 returned miR-21 FLuc 3%.
`Cn1nc(-c2cccnc2)nc2c(=O)n(C)c(=O)nc1-2` gave Giardia killer -86*.
`CC(=O)OCCCNc1cc(Sc2nc3ccccc3s2)c2nonc2c1[N+](=O)[O-]` gave Giardia killer 9, B2AR arrestin 0%, miR-21 FLuc -7%, uPA surface inh -2%, GALK inhibitor -3% and FBPA coupling cs -35*.
CC(=O)OCCCNc1cc(Sc2ccc(C)cc2)c2nonc2c1[N+](=O)[O-] was read as Giardia killer -5, B2AR arrestin 0%, miR-21 FLuc 0%, uPA surface inh -15%, GALK inhibitor 0% and FBPA coupling cs -3.
For CCCn1c(-c2ccc(F)cc2)nc2c(NCC(C)(C)CN(C)C)nc(C)nc21 the results were FBPA coupling cs 3.
Screening O=S1(=O)c2ccc(Br)cc2N2CC[C@H](C2)N1Cc1ccc(Cl)cc1 returned Giardia killer 5 and uPA surface inh 3.2µM*.

Copied from the results shown for reference:
For CCCn1c(-c2ccc(F)cc2)nc2c(NCC(C)(C)CN(C)C)nc(C)nc21 the results were FBPA coupling cs 3.
Screening O=S1(=O)c2ccc(Br)cc2N2CC[C@H](C2)N1Cc1ccc(Cl)cc1 returned Giardia killer 5 and uPA surface inh 3.2µM*.

In the list so far, these contain a halogen:
For Cn1nc(-c2ccc(F)cc2)nc2c(=O)n(C)c(=O)nc1-2 the results were Giardia killer -89*.
For CCCn1c(-c2ccc(F)cc2)nc2c(NCC(C)(C)CN(C)C)nc(C)nc21 the results were FBPA coupling cs 3.
Screening O=S1(=O)c2ccc(Br)cc2N2CC[C@H](C2)N1Cc1ccc(Cl)cc1 returned Giardia killer 5 and uPA surface inh 3.2µM*.

Remaining list, next part
`Nc1ccc2nc3c(=O)n(CCc4ccccc4)c(=O)[nH]c3nc2c1` gave Giardia killer inconclusive, B2AR arrestin -1%, miR-21 FLuc -16%, uPA surface inh -2%, GALK inhibitor -2% and FBPA coupling cs -20.
For CCCCn1c(=O)[nH]c2nc3cc(N)ccc3nc2c1=O the results were Giardia killer -6, B2AR arrestin 0%, miR-21 FLuc -40%, uPA surface inh 16%, GALK inhibitor 1% and FBPA coupling cs -53*.
Screening COc1cc(C(C#N)N2CCCCC2)ccc1O (stereo unspecified) returned Giardia killer -2, B2AR arrestin 0%, miR-21 FLuc -2%, uPA surface inh -12%, GALK inhibitor 1% and FBPA coupling cs -20.
For COc1cc(C(C#N)N2CCOCC2)ccc1O (stereo unspecified) the results were Giardia killer -4, B2AR arrestin -1%, miR-21 FLuc 3%, uPA surface inh 1%, GALK inhibitor 2% and FBPA coupling cs -35*.
COc1ccc(-c2nc3ccc(NC(=O)CO)cc3c(=O)n2Cc2cccc(Cl)c2)cc1COc1ccc(NC(C)=O)cc1 was read as Giardia killer -5.
`CNc1nc(Cl)nc2c1ncn2CC(COC(=O)C(C)(C)C)COC(=O)C(C)(C)C` gave FBPA coupling cs -5.
Screening COC(=O)c1c(NS(=O)(=O)c2ccccc2)csc1C returned Giardia killer -14, B2AR arrestin 0%, miR-21 FLuc -4%, uPA surface inh -1%, GALK inhibitor 7% and FBPA coupling cs -34*.
`CCOC(=O)c1ccccc1NS(=O)(=O)c1ccccc1` gave Giardia killer 31, B2AR arrestin 0%, miR-21 FLuc -3%, uPA surface inh -13%, GALK inhibitor 0% and FBPA coupling cs -26.
Screening O=C(Nc1ccc(C(F)(F)F)cc1)c1cc(S(=O)(=O)NC2CCCCCC2)ccc1F returned miR-21 FLuc 23%.
For C/C(Cn1nnc([N+](=O)[O-])n1)=N\NC(=O)c1ccccc1Cl the results were Giardia killer inconclusive, B2AR arrestin 0%, miR-21 FLuc inconclusive, uPA surface inh -18%, GALK inhibitor 1% and FBPA coupling cs -40*.
`C/C(Cn1nnc([N+](=O)[O-])n1)=N\NC(=O)c1cccc(Cl)c1` gave Giardia killer 2, B2AR arrestin 0%, miR-21 FLuc 16%, uPA surface inh -12%, GALK inhibitor -4% and FBPA coupling cs -36*.
`C/C(Cn1cnc([N+](=O)[O-])n1)=N\NC(=O)c1cccc(F)c1` gave Giardia killer 6, B2AR arrestin -1%, miR-21 FLuc -26%, uPA surface inh -8%, GALK inhibitor 2% and FBPA coupling cs -5.
For COC(=O)c1sc2ccccc2c1S(=O)(=O)N1CCN(c2ccc(C(C)=O)cc2)CC1 the results were miR-21 FLuc -6%.
Screening O=[N+]([O-])c1ccc(/C=N/Nc2nc(N3CCCC3)nc(N3CCCC3)n2)o1 returned Giardia killer -95*, B2AR arrestin 0%, miR-21 FLuc 8%, uPA surface inh -15%, GALK inhibitor 0% and FBPA coupling cs -6.
`CCNc1nc(NCC)nc(N/N=C/c2ccc([N+](=O)[O-])o2)n1` gave Giardia killer -82*, B2AR arrestin 0%, miR-21 FLuc 8%, uPA surface inh -5%, GALK inhibitor -1% and FBPA coupling cs -7.
O=[N+]([O-])c1ccc(-c2ccc(/C=N/Nc3nc(N4CCCC4)nc(N4CCCC4)n3)o2)cc1 was read as Giardia killer -6, B2AR arrestin 0%, miR-21 FLuc -1%, uPA surface inh 3%, GALK inhibitor 3% and FBPA coupling cs 2.
`CCNc1nc(NCC)nc(N/N=C/c2ccccc2)n1` gave Giardia killer -8, B2AR arrestin -1%, miR-21 FLuc -3%, uPA surface inh -7%, GALK inhibitor 4% and FBPA coupling cs 1.
Cc1ccc2cccc(NC(=O)COc3ccccc3[N+](=O)[O-])c2n1 was read as miR-21 FLuc -2%.
`Cc1cccc(CNC(=O)c2ccc(NC(=O)N3CC(C)Sc4ccccc43)cc2)c1` (stereo unspecified) gave miR-21 FLuc -3%.
Screening Cc1ccc(S(=O)(=O)/N=C2\C=C(NS(=O)(=O)c3ccccc3)C(=O)c3ccccc32)cc1 returned Giardia killer -1 and uPA surface inh -1%.
For Cc1ccc(S(=O)(=O)/N=C2/C=C(C3C(=O)CC(C)(C)CC3=O)C(=O)c3ccccc32)cc1 the results were Giardia killer 12, B2AR arrestin 0%, miR-21 FLuc inconclusive, uPA surface inh -10%, GALK inhibitor 0% and FBPA coupling cs -48*.
Screening O=C(Nc1nc2c(F)cc(F)cc2s1)c1ccco1 returned Giardia killer inconclusive, B2AR arrestin 0%, miR-21 FLuc -17%, uPA surface inh inconclusive and FBPA coupling cs -3.
Screening Cc1cc(C)c2nc(NC(=O)c3ccc([N+](=O)[O-])o3)sc2c1 returned Giardia killer -90*, B2AR arrestin 0%, miR-21 FLuc 3%, uPA surface inh -11%, GALK inhibitor 3% and FBPA coupling cs 2.
